Experiments:
MUC1 epitope peptide = experiment: Serum antibody response to MUC1 epitope in immunized mice (RIA); assay type: in vivo; details: C57Bl6 and Balb/c mice, 100 μg i.p. with RIBI adjuvant, three immunizations, sera at 6 weeks
From the text: iii. Animal Models. The strains of mice used for this example were inbred females 6 to 12 week old C57Bl6(H-2^b) and Balb/c (H-2^d), which were obtained from Jackson labs (Bar Harbor, Me.). […] The MUC1 peptide selected for these studies contained a motif that may bind to the H-2K^b molecule of the C57Bl6 mice; therefore, a strain of mouse that lacked this class I molecule binding motif (Balb/c) was also studied to determine the relative contribution of the class I binding motif to the antigen presentation properties of these peptides.
iv. Immunization protocol. Preimmune sera were obtained from mice, which were subsequently immunized intraperitoneally with 100 μg of the indicated peptide with RIBI adjuvant (MPL+TDM+CWS) (Sigma Immunochemicals). Animals were boosted twice at two week intervals using the same injection procedure. Sera were obtained following three immunizations (at 6 weeks).
v. Analysis of serum antibody responses. For radioimmunoassay (RIA), anti-peptide antibodies were determined, before and at different time points after immunization, in 96-well microtiter plates (Dynatech Laboratories, Inc.). […] Anti-peptide antibody titers were determined using serial dilutions of sera. […] After washing, specific radioactivity was recorded in a gamma counter (1272 CliniGamma, LKB). […]

C5aR = target: T1, C5aR (Homo sapiens, UniProt P21730); experiment: Binding affinity for C5aRs on human PMNs (125I-C5a competition)
T1 construct: endogenous in cells; host or cells: intact human PMNs (polymorphonuclear leukocytes)
T1 sequence (P21730 1-350): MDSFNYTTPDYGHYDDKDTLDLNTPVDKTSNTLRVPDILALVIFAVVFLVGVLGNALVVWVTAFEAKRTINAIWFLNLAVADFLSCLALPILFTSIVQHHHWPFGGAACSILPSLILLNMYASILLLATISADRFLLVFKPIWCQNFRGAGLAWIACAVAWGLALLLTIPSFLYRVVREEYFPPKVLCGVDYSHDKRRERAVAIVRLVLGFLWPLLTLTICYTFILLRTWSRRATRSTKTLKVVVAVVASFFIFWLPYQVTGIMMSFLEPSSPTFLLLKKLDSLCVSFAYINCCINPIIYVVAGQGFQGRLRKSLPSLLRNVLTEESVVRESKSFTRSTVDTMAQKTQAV
Experimental: Pharmacologic assays. C5a-like agonistic activity was assessed by the ability of the peptides to induce smooth muscle contraction of human umbilical artery and […] from human PMNs according to previously published methods (Sanderson et al., 1994, supra; Sanderson et al., J. Med. Chem. 38, 3669, 1995; Finch et al., J. Med. Chem. 40, 877, 1997). Full concentration-response curves were generated for individual peptides and natural C5a in each assay and the EC50 values (the concentration of peptide producing 50% of the maximal response to each peptide) were calculated. pD2 transforms [−log EC50 (M)] were calculated for each concentration-response curve and reported as the mean±SE. Peptide binding affinity to the C5aR was evaluated on intact human PMNs by a competition assay using ^125I-C5a according to previously described methods (Sanderson et al., 1995, supra; Finch et al., 1997, supra). Statistical analysis of the values obtained from pharmacologic assays was performed using one-way analysis of variance (ANOVA).

[1] = test system: 51Cr-labeled P815S (HBsAg transfectant) target cells; experiment: HBsAg-specific CTL response of immunized mice (51Cr-release assay); assay type: in vivo, BALB/c mice; details: s.c. in PBS, boost day 21, spleen cells day 42
human umbilical artery = experiment: Smooth muscle contraction of human umbilical artery; assay type: cell-based
Experimental: Pharmacologic assays. […] Statistical analysis of the values obtained from pharmacologic assays was performed using one-way analysis of variance (ANOVA).

SMILES: CSCC[C@H](NC(=O)[C@@H]1CCCN1C(=O)[C@H](CCCCN)NC(=O)[C@H](Cc1ccccc1)NC(=O)[C@H](CO)NC(=O)[C@@H](N)Cc1ccc(O)cc1)C(=O)N1CCC[C@H]1C(=O)N[C@@H](CC(C)C)C(=O)N[C@H](C)C(=O)N[C@@H](CCCNC(=N)N)C(=O)O
- antibody response to MUC1 epitope (RIA) (MUC1 epitope peptide): no appreciable increase in antibody response
- EC50 (C5aR): 2340 nM
- IC50 (C5aR): 2340 nM
- % Specific Lysis ([1]; Effector:Target Ratio 6.25:1): 1%
- % Specific Lysis ([1]; Effector:Target Ratio 12.5:1): 0%
- % Specific Lysis ([1]; Effector:Target Ratio 25:1): 2%
- % Specific Lysis ([1]; Effector:Target Ratio 50:1): 1%
- EC50 (human umbilical artery; concentration resulting in 50% maximum contraction): 10 nM
- pD2 ± SE (human umbilical artery; −log EC50 (M), mean ± SE, n 3): 6.99 ± 0.22

Reference: patent US20050089524A1, “Compositions and compounds for use as molecular adjuvant for a nicotine vaccine” (priority 2002, published 2005)
